The numbers were not newly measured in patent publication US8633313B2, “Heterocyclic compounds and their uses” (Amgen Inc., priority 2009, dated 2014), which cites them from elsewhere.

The chains behind the UniProt entries cited, without tags or fusion partners.
UniProt P42338, whole entry, species assumed: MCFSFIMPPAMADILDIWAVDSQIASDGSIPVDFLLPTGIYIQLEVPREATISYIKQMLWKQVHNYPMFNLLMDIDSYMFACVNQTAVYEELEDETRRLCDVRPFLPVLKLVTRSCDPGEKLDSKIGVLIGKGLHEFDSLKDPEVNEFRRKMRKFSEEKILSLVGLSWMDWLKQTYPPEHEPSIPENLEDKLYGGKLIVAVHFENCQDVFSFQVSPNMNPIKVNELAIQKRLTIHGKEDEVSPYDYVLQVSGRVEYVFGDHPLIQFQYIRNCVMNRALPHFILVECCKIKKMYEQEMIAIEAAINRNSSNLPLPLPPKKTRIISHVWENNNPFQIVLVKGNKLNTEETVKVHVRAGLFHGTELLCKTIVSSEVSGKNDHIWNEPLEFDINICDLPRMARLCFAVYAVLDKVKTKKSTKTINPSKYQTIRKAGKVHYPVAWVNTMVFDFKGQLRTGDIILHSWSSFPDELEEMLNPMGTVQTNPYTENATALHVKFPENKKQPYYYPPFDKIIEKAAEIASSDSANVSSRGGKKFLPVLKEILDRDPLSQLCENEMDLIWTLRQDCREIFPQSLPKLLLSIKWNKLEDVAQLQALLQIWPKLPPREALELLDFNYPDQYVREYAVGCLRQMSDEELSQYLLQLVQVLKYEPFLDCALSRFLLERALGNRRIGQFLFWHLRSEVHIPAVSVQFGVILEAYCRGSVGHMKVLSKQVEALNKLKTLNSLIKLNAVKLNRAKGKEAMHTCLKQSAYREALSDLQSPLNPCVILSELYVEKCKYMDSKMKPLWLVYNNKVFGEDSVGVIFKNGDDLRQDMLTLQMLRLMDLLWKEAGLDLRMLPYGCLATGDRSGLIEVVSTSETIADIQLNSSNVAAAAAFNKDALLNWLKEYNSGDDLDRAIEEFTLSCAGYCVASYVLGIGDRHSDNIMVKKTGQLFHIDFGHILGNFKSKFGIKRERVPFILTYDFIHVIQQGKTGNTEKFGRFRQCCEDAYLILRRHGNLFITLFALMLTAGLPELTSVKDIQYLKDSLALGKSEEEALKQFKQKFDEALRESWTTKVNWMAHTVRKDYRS

Molecules are shown by their SMILES.

The series addresses p110β (Homo sapiens, UniProt P42338). The conditions noted are these: read-out: potency on beta; cited from earlier work.

For the compound `Cc1cc(C(C)Nc2ccccc2)c2nc(N3CCOCC3)cc(=O)n2c1` (stereo not shown) [TGX-221], the IC50 is 7 nM.
